# Biological target: NAMPT (Homo sapiens (Human), UniProt P43490)
# By UniProt entry, the sequences of proteins in these tests, tags left out. Where a name states a change or a piece, a line headed by the entry shows the natural chain unless it says otherwise.
# UniProt P43490: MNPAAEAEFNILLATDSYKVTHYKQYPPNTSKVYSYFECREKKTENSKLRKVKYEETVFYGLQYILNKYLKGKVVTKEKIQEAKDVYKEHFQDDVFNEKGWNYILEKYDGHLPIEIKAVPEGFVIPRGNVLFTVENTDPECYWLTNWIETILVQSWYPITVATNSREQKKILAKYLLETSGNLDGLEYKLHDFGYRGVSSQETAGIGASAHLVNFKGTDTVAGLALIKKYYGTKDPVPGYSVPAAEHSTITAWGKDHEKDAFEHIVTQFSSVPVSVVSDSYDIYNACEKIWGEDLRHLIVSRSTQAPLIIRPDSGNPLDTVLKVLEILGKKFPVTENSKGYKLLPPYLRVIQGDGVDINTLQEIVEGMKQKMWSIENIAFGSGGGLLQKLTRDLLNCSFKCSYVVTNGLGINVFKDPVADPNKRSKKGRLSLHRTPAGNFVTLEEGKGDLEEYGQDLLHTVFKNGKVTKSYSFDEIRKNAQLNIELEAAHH
# Test: Biochemical inhibition assay (NAMPT enzymatic reaction, NMN quantified by mass spectrometry)
row,IC50 [nM],SMILES
1,50.4,"CCn1nc(C)c(C(=O)N2CCC3(CC2)CC3CNC(=O)c2cc3c(o2)C=NCC3)c1C (centres unmarked) [Example 222, N-[[6-(1-isopropyl-3,5-dimethyl-pyrazole-4-carbonyl)-6-azaspiro[2.5]octan-2-y]methyl]furo[2,3-c]pyridine-2-carboxamide]"
2,54.8,"O=C(CCN1CCOCC1)N1CCC2(CC1)CC2CNC(=O)N1Cc2ccncc2C1 (centres unmarked) [Example 229, N-[[6-(3-morpholinopropanoyl)-6-azaspiro[2.5]octan-2-yl)methyl]-1,3-dihydropyrrolo[3,4-c]pyridine-2-carboxamide]"
3,18.5,"O=C(NCC1CC12CCN(C(=O)C(F)(F)c1ccccc1)CC2)N1Cc2ccncc2C1 (centres unmarked) [Example 230, N-[[6-(2,2-difluoro-2-phenyl-acetyl)-6-azaspiro[2.5]octan-2-yl]methyl]-1,3-dihydropyrrolo[3,4-c]pyridine-2-carboxamide]"
4,201,"Cc1cccnc1C(=O)N1CCC2(CC1)CC2CNC(=O)c1cc2ccncc2o1 (centres unmarked) [Example 231, N-[[6-(3-methylpyridine-2-carbonyl)-6-azaspiro[2.5]octan-2-yl]methyl]furo[2,3-c]pyridine-2-carboxamide]"
5,98.3,"Cc1cnccc1C(=O)N1CCC2(CC1)CC2CNC(=O)c1cc2ccncc2o1 (centres unmarked) [Example 232, N-[[6-(3-methylpyridine-4-carbonyl)-6-azaspiro[2.5]octan-2-yl]methyl]furo[2,3-c]pyridine-2-carboxamide]"
6,45.8,"Cc1ccc(C(=O)N2CCC3(CC2)CC3CNC(=O)c2cc3ccncc3o2)cn1 (centres unmarked) [Example 233, N-[[6-(6-methylpyridine-3-carbonyl)-6-azaspiro[2.5]octan-2-yl]methyl]furo[2,3-c]pyridine-2-carboxamide]"
7,288,"Cc1ccnc(C(=O)N2CCC3(CC2)CC3CNC(=O)c2cc3ccncc3o2)c1 (centres unmarked) [Example 235, N-[[6-(4-methylpyridine-2-carbonyl)-6-azaspiro[2.5]octan-2-yl]methyl]furo[2,3-c]pyridine-2-carboxamide]"
8,33.9,"O=C(NCC1CC12CCN(C(=O)c1cccc3[nH]cnc13)CC2)c1cc2ccncc2o1 (centres unmarked) [Example 236, N-[[6-(1H-benzimidazole-4-carbonyl)-6-azaspiro[2.5]octan-2-yl]methyl]furo[2,3-c]pyridine-2-carboxamide]"
9,50.1,"O=C(NCC1CC12CCN(C(=O)c1cc3cccn3cn1)CC2)c1cc2ccncc2o1 (centres unmarked) [Example 237, N-[[6-(pyrrolo[1,2-c]pyrimidine-3-carbonyl)-6-azaspiro[2.5]octan-2-yl]methyl]furo[2,3-c]pyridine-2-carboxamide]"
10,31.7,"O=C(NCC1CC12CCN(C(=O)c1ccc3[nH]nnc3c1)CC2)c1cc2ccncc2o1 (centres unmarked) [Example 238, N-[[6-(1H-benzotriazole-5-carbonyl)-6-azaspiro[2.5]octan-2-yl]methyl]furo[2,3-c]pyridine-2-carboxamide]"
11,32.9,"O=C(NCC1CC12CCN(C(=O)c1ccnc3[nH]ccc13)CC2)c1cc2ccncc2o1 (centres unmarked) [Example 239, N-[[6-(1H-pyrrolo[2,3-b]pyridine-4-carbonyl)-6-azaspiro[2.5]octan-2-yl]methyl]furo[2,3-c]pyridine-2-carboxamide]"
12,26.3,"O=C(NCC1CC12CCN(C(=O)c1cccc3[nH]ncc13)CC2)c1cc2ccncc2o1 (centres unmarked) [Example 240, N-[[6-(1H-indazole-4-carbonyl)-6-azaspiro[2.5]octan-2-yl]methyl]furo[2,3-c]pyridine-2-carboxamide]"
13,27.3,"O=C(NCC1CC12CCN(C(=O)c1ccc3[nH]cnc3c1)CC2)c1cc2ccncc2o1 (centres unmarked) [Example 241, N-[[6-(1H-benzimidazole-5-carbonyl)-6-azaspiro[2.5]octan-2-yl]methyl]furo[2,3-c]pyridine-2-carboxamide]"
14,134,"N#Cc1ccc(C(=O)N2CCC3(CC2)CC3CNC(=O)c2cc3ccncc3o2)cc1 (centres unmarked) [Example 242, N-[[6-(4-cyanobenzoyl)-6-azaspiro[2.5]octan-2-yl]methyl]furo[2,3-c]pyridine-2-carboxamide]"
15,73.6,"N#Cc1cccc(C(=O)N2CCC3(CC2)CC3CNC(=O)c2cc3ccncc3o2)c1 (centres unmarked) [Example 243, N-[[6-(3-cyanobenzoyl)-6-azaspiro[2.5]octan-2-yl]methyl]furo[2,3-c]pyridine-2-carboxamide]"
16,52.5,"O=C(NCC1CC12CCN(C(=O)c1ccc(CN3CCOCC3)cc1)CC2)c1cc2ccncc2o1 (centres unmarked) [Example 245, N-[[6-[4-(morpholinomcthyl)benzoyl]-6-azaspiro[2.5]octan-2-yl]methyl]furo[2,3-c]pyridine-2-carboxamide]"
17,21.1,"Cc1nccn1Cc1ccc(C(=O)N2CCC3(CC2)CC3CNC(=O)c2cc3ccncc3o2)cc1 (centres unmarked) [Example 246, N-[[6-[4-[(2-methylimidazol-1-yl)methyl]benzoyl]-6-azaspiro[2.5]octan-2-yl]methyl]furo[2,3-c]pyridine-2-carboxamide]"
18,205,"O=C(NCC1CC12CCN(C(=O)c1ccc(OC(F)(F)F)cc1)CC2)c1cc2ccncc2o1 (centres unmarked) [Example 247, N-[[6-[4-(trifluoromethoxy)benzoyl]-6-azaspiro[2.5]octan-2-yl]methyl]furo[2,3-c]pyridine-2-carboxamide]"

row,IC50 [nM],SMILES
1,22.1,"O=C(NCC1CC12CCN(C(=O)c1ccc(CN3CCCC3)cc1)CC2)c1cc2ccncc2o1 (centres unmarked) [Example 248, N-[[6-[4-(pyrrolidin-1-ylmethyl)benzoyl]-6-azaspiro[2.5]octan-2-yl]methyl]furo[2,3-c]pyridine-2-carboxamide]"
2,254,"O=C(NCC1CC12CCN(C(=O)c1cccc(Cn3cncn3)c1)CC2)c1cc2ccncc2o1 (centres unmarked) [Example 249, N-[[6-[3-(1,2,4-triazol-1-ylmethyl)benzoyl]-6-azaspiro[2.5]octan-2-yl]methyl]furo[2,3-c]pyridine-2-carboxamide]"
3,549,"O=C(NCC1CC12CCN(C(=O)c1ccccc1Cn1cncn1)CC2)c1cc2ccncc2o1 (centres unmarked) [Example 250, N-[[6-[2-(1,2,4-triazol-1-ylmethyl)benzoyl]-6-azaspiro[2.5]octan-2-yl]methyl]furo[2,3-c]pyridine-2-carboxamide]"
4,77.6,"O=C(NCC1CC12CCN(C(=O)c1ccc(Cn3cncn3)cc1)CC2)c1cc2ccncc2o1 (centres unmarked) [Example 251, N-[[6-[4-(1,2,4-triazol-1-ylmethyl)benzoyl]-6-azaspiro[2.5]octan-2-yl]methyl]furo[2,3-c]pyridine-2-carboxamide]"
5,69.5,"O=C(NCC1CC12CCN(C(=O)c1cccc(Cn3ccnc3)c1)CC2)c1cc2ccncc2o1 (centres unmarked) [Example 252, N-[[6-[3-(imidazol-1-ylmethyl)benzoyl]-6-azaspiro[2.5]octan-2-yl]methyl]furo[2,3-c]pyridine-2-carboxamide]"
6,41.7,"O=C(NCC1CC12CCN(C(=O)c1ccc(-n3ccnc3)cc1)CC2)c1cc2ccncc2o1 (centres unmarked) [Example 253, N-[[6-(4-imidazol-1-ylbenzoy)-6-azaspiro[2.5]octan-2-yl]methyl]furo[2,3-c]pyridine-2-carboxamide]"
7,19.1,"O=C(NCC1CC12CCN(C(=O)c1ccc(-c3ncn[nH]3)cc1)CC2)c1cc2ccncc2o1 (centres unmarked) [Example 254, N-[[6-(4-(1H-1,2,4-triazol-5-yl)benzoyl]-6-azaspiro[2.5]octan-2-yl]methyl]furo[2,3-c]pyridine-2-carboxamide]"
8,49.9,"O=C(NCC1CC12CCN(C(=O)c1ccc(-n3ccnc3)nc1)CC2)c1cc2ccncc2o1 (centres unmarked) [Example 255, N-[[6-(6-imidazol-1-ylpyridine-3-carbonyl)-6-azaspiro[2.5]octan-2-yl]methyl]furo[2,3-c]pyndine-2-carboxamide]"
9,147,"O=C(NCC1CC12CCN(C(=O)c1cc(C(F)(F)F)ccn1)CC2)c1cc2ccncc2o1 (centres unmarked) [Example 256, N-[[6-[4-(trifluoromethyl]pyridine-2-carbonyl]6-azaspiro[2.5]octan-2-yl]methyl]furo[2,3-c]pyridine-2-carboxamide]"
10,313,"O=C(NCC1CC12CCN(C(=O)c1ccc(C(F)(F)F)nc1)CC2)c1cc2ccncc2o1 (centres unmarked) [Example 257, N-[[6-[6-(trifluoromethyl]pyndine-3-carbonyl]-6-azaspiro[2.5]octan-2-yl]methyl]furo[2,3-c]pyridine-2-carboxamide]"
11,31.4,"O=C1COc2ccc(C(=O)N3CCC4(CC3)CC4CNC(=O)c3cc4ccncc4o3)cc2N1 (centres unmarked) [Example 258, N-[[6-(3-oxo-4H-1,4-benzoxazine-6-carbonyl)-6-azaspiro[2.5]octan-2-yl]methyl]furo[2,3-c]pyridine-2-carboxamide]"
12,161,"NS(=O)(=O)c1ccc(C(=O)N2CCC3(CC2)CC3CNC(=O)c2cc3ccncc3o2)cc1 (centres unmarked) [Example 259, N-[[6-(4-sulfamoylbenzoyl)-6-azaspiro[2.5]octan-2-yl]methyl]furo[2,3-c]pyridine-2-carboxamide]"
13,916,"O=C(NCC1CC12CCN(C(=O)c1ccccc1Cn1ccnc1)CC2)c1cc2ccncc2o1 (centres unmarked) [Example 260, N-[[6-(2-(imidazol-1-ylmethyl)benzoyl]-6-azaspito[2.5]octan-2-yl]methyl]furo[2,3-c]pyridine-2-carboxamide]"
14,24.5,"O=C(NCC1CC12CCN(C(=O)c1ccc3nccnc3c1)CC2)c1cc2ccncc2o1 (centres unmarked) [Example 261, N-[[6-(quinoxaline-6-carbonyl)-6-azaspiro[2.5]octan-2-yl]methyl]furo[2,3-c]pyridine-2-carboxamide]"
15,69.5,"O=C(NCC1CC12CCN(C(=O)c1ccc3cnccc3n1)CC2)c1cc2ccncc2o1 (centres unmarked) [Example 262, N-[[6-(1,6-naphthyridine-2-carbonyl)-6-azaspiro[2.5]octan-2-yl]methyl]furo[2,3-c]pyridine-2-carboxamide]"
16,68.3,"CC(=O)Nc1cccc(C(=O)N2CCC3(CC2)CC3CNC(=O)c2cc3ccncc3o2)c1 (centres unmarked) [Example 264, N-[[6-(3-acetamidobenzoyl)-6-azaspiro[2.5]octan-2-yl]methyl]furo[2,3-c]pyridine-2-carboxamide]"
17,2230,"CC(=O)Nc1cnccc1C(=O)N1CCC2(CC1)CC2CNC(=O)c1cc2ccncc2o1 (centres unmarked) [Example 265, N-[[6-(3-acetamidopyridine-4-carbonyl)-6-azaspiro[2.5]octan-2-yl]methyl]furo[2,3-c]pyridine-2-carboxamide]"

# From patent US10730889B2, “Amido spirocyclic amide and sulfonamide derivatives” (Forma TM, LLC, priority 2012, dated 2020)
